Data taken from patent publication US10369134B2, “Nonracemic mixtures and uses thereof” (Sunovion Pharmaceuticals Inc., priority 2017, dated 2019).

Amino acid sequences for entries named in this document (tags omitted).
UniProt P34969, whole entry: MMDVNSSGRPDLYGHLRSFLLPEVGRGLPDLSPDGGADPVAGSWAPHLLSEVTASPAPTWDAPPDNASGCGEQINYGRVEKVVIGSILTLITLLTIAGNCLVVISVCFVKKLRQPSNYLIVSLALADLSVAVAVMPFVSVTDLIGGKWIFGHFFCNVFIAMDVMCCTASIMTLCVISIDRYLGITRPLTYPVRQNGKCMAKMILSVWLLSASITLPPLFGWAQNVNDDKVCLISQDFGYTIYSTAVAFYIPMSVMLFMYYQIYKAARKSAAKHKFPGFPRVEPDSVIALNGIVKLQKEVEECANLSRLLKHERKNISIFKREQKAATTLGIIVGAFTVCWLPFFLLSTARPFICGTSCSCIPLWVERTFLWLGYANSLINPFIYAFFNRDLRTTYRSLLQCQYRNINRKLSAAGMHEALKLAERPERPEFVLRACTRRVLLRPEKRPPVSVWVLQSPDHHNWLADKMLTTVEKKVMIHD

Biological target: T1, Serotonin 5-HT7 receptors (Homo sapiens, UniProt P34969)
T1 construct: host or cells: CHO-K1 cells
Experiment: Serotonin 5-HT7 radioligand binding ([3H]LSD)

[1] = Table 5, average ± 1 standard deviation, n=3, read-out: in vitro Ki values 5-HT7

A Ki (Table 4, human 5-HT7 in CHO-K1 cells, ± standard error of the mean, read-out: inhibitor constant (Ki) Serotonin 5-HT7) of 89 ± 2 nM and a Ki [1] of 89 ± 2 nM were found for `CCN1CCCC1CNC(=O)c1cc(S(=O)(=O)CC)c(N)cc1OC` (racemic) [racemic amisulpride, 4-amino-N-[(1-ethylpyrrolidin-2-yl)methyl]-5-ethylsulfonyl-2-methoxy-benzamide, reference compound] in this work.
A Ki [1] of 47 ± 4 nM was found for `CCN1CCC[C@@H]1CNC(=O)c1cc(S(=O)(=O)CC)c(N)cc1OC` [(R)-amisulpride, R-4-Amino-N-[(1-ethyl-2-pyrrolidinyl)methyl]-5-(ethylsulfonyl)-2-methoxybenzamide] in this work.
A Ki [1] of 1860 nM was found for `CCN1CCC[C@H]1CNC(=O)c1cc(S(=O)(=O)CC)c(N)cc1OC` [(S)-amisulpride, S-4-Amino-N-[(1-ethyl-2-pyrrolidinyl)methyl]-5-(ethylsulfonyl)-2-methoxybenzamide] in this work.

Like-named read-outs stand apart in the source and are kept apart here.
